Laboratory results reported in ChEMBL document CHEMBL1125385, “Novel inhibitors of prolyl 4-hydroxylase. 2. 5-Amide substituted pyridine-2-carboxylic acids” (J Med Chem, 1992).

Tested on: Prolyl 4-hydroxylase (Gallus gallus); call rule not given here
Assay: Inhibition of Prolyl 4-hydroxylase activity in cultured embryonic chick tendon cells; NA=Not active

With O=C(Nc1ccc(C(=O)O)nc1)c1ccc(F)cc1 the IC50 was “Not Active”.

For Cc1ccc(C(=O)Nc2ccc(C(=O)O)nc2)cc1, the IC50 was “Not Active”.
